Source: patent EP4825847A1, “NMDA RECEPTOR ANTAGONIST AND USE THEREOF” (dated 2026)
Counter-ions that a name gives are not always drawn.

Tests used:
[1] = Solution stability: purity of the solution over 24 hrs in the solubility test; details: for solution stability: summary in words
Description: The solubilities of different forms of the compounds in media with different pH values were tested. The compound sample was weighed into a glass flask, and 1 mL or 2 mL of phosphate buffer pH=6.0, pure water, phosphate buffer pH=8.0, and/or 0.9% physiological saline respectively was added respectively, and magnetically stirred at 20°C for 24 hrs. A sample was taken for solubility test, and the purity of the solution over 24 hrs was tested. Table 18: Solubility test results of different crystal forms of the salts of Compound 2 in media with different pH values

[2] = Solid stability test (purity, crystal form, appearance on storage)
Description: Crystal Form A of the hydrochloride, Crystal Form B of the phosphate, and Crystal Form C of the mesylate of Compound 2 and Crystal Form G of the hydrochloride, Crystal Form I of the phosphate, and Crystal Form J of the mesylate of Compound 3 were respectively packaged and stored at an acceleration condition of 40°C/75% RH, a routing condition of 25°C/60% RH, and a high-temperature condition of 60°C, and the purity, crystal form, and appearance of the compounds were evaluated at different times. Table 20. Solid stability test results of Crystal Form A of Compound 2 hydrochloride

[3] = tested on: C57BL/6J male mice; assay: Toxicity test of compounds (non-toxic dose exploration, epilepsy-like behavior score); details: i.p.; for NOAEL dosage (mg/kg) (score 0): epilepsy-like behavior score 0; for NOAEL doses: compared with Comparative Compound 2-SS mesylate; for STD10 (mg/kg) (score 8): dose at which 10% of the animals have severe toxic reaction
Description: The exploration test of non-toxic dose of the compound is an important index to evaluate the safety of the compound. High safety will bring a higher treatment window. The animal information was the same as that in Test Example 2.
• 1. The test was carried out in a quiet environment. The animals were weighed and acclimated in the test chamber for at least 30 min before the test. • 2. The compound to be tested was dissolved in 0.9% physiological saline, and the corresponding volume of the compound was intraperitoneally injected (i.p.) according to the weight of mice. The dosage was the target dosage of administration. The number of animals in each group was 2 or 3. • 3. The mice after administration were placed in a transparent observation chamber, and the behavior changes of the mice were video recorded and observed for about one hour. (Note: During the observation period, if the mouse was lying still, the mouse was turned over by hand, and whether the righting reflex (RR) of the mouse disappeared was checked. If disappeared, the mouse was in an anesthetic state, and the time of anesthesia of the mouse was recorded). • 4. After the one-hour observation, the mice were returned to the rearing cage. The observation chamber was wiped with 75% alcohol, to avoid the influence of the information left by animals in the last round (such as the smell of animals' feces and urine) on the next test result. The next round of animals were changed to continue the test.
Table C. Epilepsy-like behavior rating scale for rodents

[4] = tested on: C57BL/6J male mice; assay: Open field test of mice; details: intraperitoneal administration of 10 mg/kg; compared with the vehicle group
Text: Open field test is a standard behavioral method to evaluate the voluntary movement behavior and the exploratory behavior, which is widely used in the research of neurological and psychiatric diseases such as depression, anxiety, Parkinson's disease and screening of drugs acting on central nervous system.
Due to the limited tests to evaluate the hallucinogenic effect of NMDAR antagonists, the open field test is used in the present invention to evaluate whether the compound affects the spontaneous locomotor activity of mice and also used to indirectly evaluate whether the compound has hallucinogenic effect. Furthermore, the increase of spontaneous locomotor activity of mice is also considered as one of the positive symptoms of schizophrenia. Therefore, the open field test can also be used to evaluate whether the compound has the psychotomimetic-like side effects.
The animal information was the same as that in Test Example 2. The number of animals in each group (N) was 10, the administration mode was intraperitoneal injection or oral administration, the dosage of administration was 5 or 10 mg/kg, and the volume of administration was 10 mL/kg.
Test process: The open field test chamber was a soundproof chamber made of opaque plexiglass and having an inner diameter of 40*40*40 cm, and the analysis software was purchased from Noldus (Ethovision XT 11.5). The test was carried out in a quiet environment. The animals were weighed and acclimated in the test chamber for at least 30 min before the test. Before the test, the software EthoVision XT 11.5 was set, the wild-type mice were placed at the center of the bottom of the chamber, and the activity within 30 min or 20 min was recorded as the baseline. After 30 min, the mice were taken out and given corresponding doses of solvent (control group) or test compound according to their body weight. Immediately after administration, the mice were placed in the same observation chamber as that in the baseline stage, and their activities within 40 min after administration were recorded. The instrument was wiped with 75% alcohol after each test, to avoid the influence of the information left by animals in the last round (such as the smell of animals' feces and urine) on the next test result. The next round of animals were changed to continue the test. After the test, data were collected for statistical analysis. The difference was analyzed by unpaired t-test to have statistical significance, where P<0.05 means that there was a significant difference. ^# P<0.05, * P<0.05, **P<0.01, ***P<0.001, **** P<0.0001. After the test, the distance (cm) traveled by the mice in the control and test compound groups every 5 min was statistically analyzed. 33 to 36.

[5] = solution in 0.9% physiological saline, 24 h
[6] = solution in Phosphate buffer pH=6.0, 24 h
[7] = solution in Phosphate buffer pH=8.0, 24 h
[8] = solution in Pure water pH=6.8, 24 h

## Clc1cccc([C@@]23CCCC[C@H]2OCCN3)c1 [Crystal Form C of Compound 2 mesylate]
[1]; [5]
  Purity (24 h): 99.98%
[1]; [6]
  Purity (24 h): 99.53%
[1]; [7]
  Purity (24 h): 99.88%
[1]; [8]
  Purity (24 h): 99.98%
[1]
  solution stability: good
[2]; 0D (start of storage)
  Appearance: Dry white solid powder
  Crystal Form: Crystal Form C
  Purity: 99.97%
[2]; 25°C/60% RH, 5D
  Appearance: White solid powder
  Crystal Form: Crystal Form C
  Purity: 99.99%
[2]; 25°C/60% RH, 10D
  Appearance: White solid powder
  Crystal Form: Crystal Form C
  Purity: 99.99%
[2]; 25°C/60% RH, 30D
  Appearance: White solid powder
  Crystal Form: Crystal Form C
  Purity: 99.99%
[2]; 40°C/75% RH, 5D
  Appearance: White solid powder
  Crystal Form: Crystal Form C
  Purity: 99.96%
[2]; 40°C/75% RH, 10D
  Appearance: White solid powder
  Crystal Form: Crystal Form C
  Purity: 99.99%
[2]; 40°C/75% RH, 30D
  Appearance: White solid powder
  Crystal Form: Crystal Form C
  Purity: 99.99%
[2]; 60°C, 5D
  Appearance: White solid powder
  Crystal Form: Crystal Form C
  Purity: 99.97%
[2]; 60°C, 10D
  Appearance: White solid powder
  Crystal Form: Crystal Form C
  Purity: 99.95%
[2]; 60°C, 30D
  Appearance: White solid powder
  Crystal Form: Crystal Form C
  Purity: 99.98%
[3]; about one hour observation
  NOAEL dosage (mg/kg) (score 0): 60 mg/kg
[3]; about one hour observation, epilepsy-like behavior score 1
  Minimum toxic dose (mg/kg) (score 1): 75 mg/kg
[3]
  NOAEL doses: higher than that of Comparative Compound 2-SS mesylate
  STD10 (mg/kg) (score 8): 275 mg/kg
[3]; compared with Comparative Compounds 2-SS and 2-RR
  minimum toxic dose (score 1): significantly higher than those of the two Comparative Compounds 2-SS and 2-RR
[4]
  distance traveled by the mice: no significant difference

## Clc1cccc([C@@]23CCCC[C@H]2OCCN3)c1 [Crystal Form A of Compound 2 hydrochloride]
[1]; [5]
  Purity (24 h): 99.98%
[1]; [6]
  Purity (24 h): 99.92%
[1]; [7]
  Purity (24 h): 99.93%
[1]; [8]
  Purity (24 h): 99.99%
[1]
  solution stability: good
[2]; 0D (start of storage)
  Appearance: Dry white solid powder
  Crystal Form: Crystal Form A
  Purity: 99.99%
[2]; 25°C/60% RH, 5D
  Appearance: White solid powder
  Crystal Form: Crystal Form A
  Purity: 99.99%
[2]; 25°C/60% RH, 10D
  Appearance: White solid powder
  Crystal Form: Crystal Form A
  Purity: 99.99%
[2]; 25°C/60% RH, 30D
  Appearance: White solid powder
  Crystal Form: Crystal Form A
  Purity: 99.99%
[2]; 40°C/75% RH, 5D
  Appearance: White solid powder
  Crystal Form: Crystal Form A
  Purity: 99.99%
[2]; 40°C/75% RH, 10D
  Appearance: White solid powder
  Crystal Form: Crystal Form A
  Purity: 99.99%
[2]; 40°C/75% RH, 30D
  Appearance: White solid powder
  Crystal Form: Crystal Form A
  Purity: 99.98%
[2]; 60°C, 5D
  Appearance: White solid powder
  Crystal Form: Crystal Form A
  Purity: 99.98%
[2]; 60°C, 10D
  Appearance: White solid powder
  Crystal Form: Crystal Form A
  Purity: 99.99%
[2]; 60°C, 30D
  Appearance: White solid powder
  Crystal Form: Crystal Form A
  Purity: 99.99%
[3]; about one hour observation
  NOAEL dosage (mg/kg) (score 0): 44 mg/kg
[3]
  NOAEL doses: higher than that of Comparative Compound 2-SS mesylate
  STD10 (mg/kg) (score 8): 263 mg/kg
[4]
  distance traveled by the mice: no significant difference
